Values quoted from earlier work in patent publication US7445791B2, “Synergistic insecticidal composition containing Chloronicotynyle and Organosphosphorus compounds” (priority 2004, dated 2008).

System: crop plants
Conditions: cited from earlier work

Q: With CCN(CC)C(=O)C(Cl)=C(C)OP(=O)(OC)OC [Phosphamidon, 2-chloro-2-diethylcarbamoyl-1-methylvinyldimethylphosphate] as the compound, how does the “phytotoxicity to crop plants (in words)” value read?
A: non-phytotoxic
